Cneo AK release – Cryptococcus neoformans lysis via adenylate kinase release; C. neoformans lysis, adenylate kinase release luminescence, 4 h; normalised: neutral wells 0, clomiphene wells 100; hit rate 0.2% among 360,000; lysis activity, % at 15 µM;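 active means mean lysis activity across replicates of at least 80%, whatever share of replicates individually reach that level; inactive means mean lysis activity below 80%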
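Assay system: C. neoformans cells. Amount: yeast cell density of 5 × 10^6 cells/mL. Technique: AK luminescence. Buffer or medium: YPD. Times: static 4 h at 37 °C with compound, 1 h detection. Dosing: single-point compound dose. Read-out: lysis from increased AK signal.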
Yeast UUG start – modulators of yeast start codon fidelity, primary screen, whole organism, S. cerevisiae, single point, plate reader | AID 602363, 2012 | actives 0.13% (n = 350,000) | activity score, % at 18.7 µM | S. cerevisiae UUG-firefly luciferase reporter, luminescence/redox ratio;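 active means replicate mean at a twofold rise or more, about +100% in these data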;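 further: firefly luciferase made from a UUG start codon reports start codon fidelity; reporter light over untreated wells divided by growth signal over untreated wells; some hits fall short of that in this replicate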
DENV2 CPE – protects cells from dengue virus 2 cytopathic effect | DENV2-infected cells, cytopathic effect rescue, plate reader | CPE inhibition, % at 9.99 µM | hit rate 1.7% among 350,000 | AID 651640; in the data active means CPE inhibition above about 20%, passing the limit was not always enough; inconclusive means no clear call, values can overlap the other calls; tested in BHK-21 cells;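 further: 0% = median of neutral control wells and 100% = median of positive control wells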
E-selectin induc – E-selectin induction on HUVECs. activation, % at 7.58 µM. P16581. HUVEC E-selectin immunofluorescence imaging; normalized: neutral wells 0, TNF-alpha wells 100. AID 686992. hit rate 0.37% among 260,000;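 active means mean E-selectin-positive cell signal at least 10% of the positive control, reached in at least 60% of replicates, without over 20% cell loss; inconclusive means no rule given, readout overlaps actives, possibly toxicity-flagged; inactive means the rest, including those meeting only one limit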
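System: HUVEC / Compound: single concentration / Signal: immunofluorescence imaging / Read-out: percent E-selectin-positive cells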
An asterisk follows results filed as active. Compounds with a hit are over-represented: about 1.8% of the library has one in this group of screens.

Sample of the layout:
What do the screens show for `COCCNC(=O)C[C@H]1CC[C@H]2[C@@H](COC[C@@H](O)CN2Cc2cccc(-c3ccncc3)c2)O1`?
Cneo AK release: -1; DENV2 CPE: 1; E-selectin induc: 0

How did C[C@@H]1CCCCO[C@H](CN(C)C(=O)Cc2ccccc2)[C@@H](C)CN([C@H](C)CO)C(=O)c2cc(NS(=O)(=O)c3ccc(Cl)cc3)ccc2O1 do in these assays?
Cneo AK release: -2; Yeast UUG start: -17; DENV2 CPE: 54*; E-selectin induc: 1

How did C[C@@H]1CCCCO[C@H](CN(C)C(=O)Cc2ccccc2)[C@H](C)CN([C@H](C)CO)C(=O)c2cc(NS(=O)(=O)c3ccc(Cl)cc3)ccc2O1 do in these assays?
Cneo AK release: 1; Yeast UUG start: -5; DENV2 CPE: 1; E-selectin induc: 1

What do the screens show for `C[C@@H]1CCCCO[C@@H](CN(C)C(=O)Cc2ccccc2)[C@H](C)CN([C@H](C)CO)C(=O)c2cc(NS(=O)(=O)c3ccc(Cl)cc3)ccc2O1`?
Cneo AK release: -1; Yeast UUG start: -12; DENV2 CPE: 85*; E-selectin induc: 1

The list itself, from the first entry:
What do the screens show for `COCCNC(=O)C[C@H]1CC[C@H]2[C@@H](COC[C@@H](O)CN2Cc2cccc(-c3ccncc3)c2)O1`?
Cneo AK release: -1; DENV2 CPE: 1; E-selectin induc: 0

How did C[C@@H]1CCCCO[C@H](CN(C)C(=O)Cc2ccccc2)[C@@H](C)CN([C@H](C)CO)C(=O)c2cc(NS(=O)(=O)c3ccc(Cl)cc3)ccc2O1 do in these assays?
Cneo AK release: -2; Yeast UUG start: -17; DENV2 CPE: 54*; E-selectin induc: 1

How did C[C@@H]1CCCCO[C@H](CN(C)C(=O)Cc2ccccc2)[C@H](C)CN([C@H](C)CO)C(=O)c2cc(NS(=O)(=O)c3ccc(Cl)cc3)ccc2O1 do in these assays?
Cneo AK release: 1; Yeast UUG start: -5; DENV2 CPE: 1; E-selectin induc: 1

What do the screens show for `C[C@@H]1CCCCO[C@@H](CN(C)C(=O)Cc2ccccc2)[C@H](C)CN([C@H](C)CO)C(=O)c2cc(NS(=O)(=O)c3ccc(Cl)cc3)ccc2O1`?
Cneo AK release: -1; Yeast UUG start: -12; DENV2 CPE: 85*; E-selectin induc: 1

How did CCCNC(=O)N1CC2(CCN(S(=O)(=O)c3ccc(OC)cc3)CC2)c2c(n(C)c3cc(OC)ccc23)[C@@H]1CO do in these assays?
DENV2 CPE: -8; E-selectin induc: -1

Results for CCOC(=O)C(=O)Nc1nnc(SCc2ccc(F)cc2)s1 ?
Cneo AK release: -1; Yeast UUG start: -6; DENV2 CPE: -8; E-selectin induc: 39*

Results for CCC(=O)Nc1nnc(SCc2ccc(F)cc2)s1 ?
Cneo AK release: -1; Yeast UUG start: -9

How did COCC#Cc1ccc2c(c1)O[C@@H](CN(C)Cc1ccncc1)[C@@H](C)CN([C@@H](C)CO)S2(=O)=O do in these assays?
Cneo AK release: 3; Yeast UUG start: -12; DENV2 CPE: 22*; E-selectin induc: 0

What do the screens show for `C[C@@H]1CN([C@H](C)CO)S(=O)(=O)c2ccc(C#C[C@@H](C)O)cc2O[C@@H]1CN(C)Cc1ccncc1`?
Cneo AK release: 83*; Yeast UUG start: 16; DENV2 CPE: -1; E-selectin induc: 0

Results for CC(C)C#Cc1ccc2c(c1)O[C@H](CN(C)C(=O)Cc1ccccn1)[C@H](C)CN([C@H](C)CO)S2(=O)=O ?
Cneo AK release: 101*; Yeast UUG start: 42; DENV2 CPE: -5; E-selectin induc: 0

Results for CC(C)C#Cc1ccc2c(c1)O[C@@H](CN(C)C(=O)Cc1ccccn1)[C@H](C)CN([C@H](C)CO)S2(=O)=O ?
Cneo AK release: -5; Yeast UUG start: -1; DENV2 CPE: 4; E-selectin induc: 0

Results for C[C@@H]1CN([C@H](C)CO)S(=O)(=O)c2ccc(C#C[C@@H](C)O)cc2O[C@H]1CN(C)Cc1ccccn1 ?
Cneo AK release: -2; Yeast UUG start: -7; DENV2 CPE: 30*; E-selectin induc: 0

What do the screens show for `CCC(=O)N1[C@H](CO)[C@@H](c2ccc(/C=C/c3ccccc3)cc2)C12CN(S(C)(=O)=O)C2`?
DENV2 CPE: 5; E-selectin induc: 0

How did O=C(C[C@@H]1C[C@H]2c3cc(NC(=O)Nc4ccccc4F)ccc3O[C@H]2[C@H](CO)O1)NCc1cc(F)ccc1F do in these assays?
Cneo AK release: 1; Yeast UUG start: 8; DENV2 CPE: inconclusive; E-selectin induc: -1

Results for O=C(C[C@@H]1CC[C@@H](NC(=O)c2ccncc2)[C@H](CO)O1)NCCc1ccncc1 ?
Cneo AK release: -4; Yeast UUG start: 3; DENV2 CPE: -1; E-selectin induc: 0

How did C/C=C/c1cnc2c(c1)C(=O)N([C@@H](C)CO)C[C@H](C)[C@H](CN(C)S(=O)(=O)c1ccccc1)O2 do in these assays?
Cneo AK release: -2; Yeast UUG start: 1; DENV2 CPE: -7; E-selectin induc: 0

What do the screens show for `C[C@H](O)C#Cc1ccc2c(c1)O[C@H](CN(C)Cc1ccncc1)[C@H](C)CN([C@H](C)CO)S2(=O)=O`?
Cneo AK release: 95*; Yeast UUG start: 12; DENV2 CPE: 17; E-selectin induc: 0

Results for O=C(C[C@@H]1C[C@H]2c3cc(NC(=O)Nc4ccc(C(F)(F)F)cc4)ccc3O[C@H]2[C@@H](CO)O1)NCCc1ccccc1 ?
Cneo AK release: -5; Yeast UUG start: -15; DENV2 CPE: -2; E-selectin induc: 3

What do the screens show for `Cc1nc(/N=C\c2ccc(N(C)C)cc2)sc1C`?
Cneo AK release: 0; Yeast UUG start: 12; DENV2 CPE: 33*; E-selectin induc: 0

Results for Cc1c(C(=O)NCCCN2CCOCC2)sc2nc(-c3ccccc3)cn12 ?
DENV2 CPE: 87*; E-selectin induc: 0

Results for COCCNC(=O)c1sc2nc(-c3ccccc3)cn2c1C ?
Cneo AK release: -9; Yeast UUG start: -21

How did Cc1cc(C)c(OCCCNC2CCCC2)c(Br)c1 do in these assays?
Cneo AK release: -2; Yeast UUG start: 2; DENV2 CPE: 28*

How did COc1ccc(S(=O)(=O)Nc2cccc3c2O[C@H](CN(C)C(=O)Nc2ccc4c(c2)OCO4)[C@H](C)CN([C@@H](C)CO)C3=O)cc1 do in these assays?
Cneo AK release: -4; Yeast UUG start: 11; DENV2 CPE: -1; E-selectin induc: 0

How did Cc1ccccc1-c1cnc(C(O)c2cccc(C)c2C)[nH]1 (stereo not given) do in these assays?
Cneo AK release: 0; Yeast UUG start: -10; DENV2 CPE: 21*; E-selectin induc: 0

Results for Cc1cccc(C(O)c2ncc(-c3ccccc3Cl)[nH]2)c1C (stereo not given) ?
Cneo AK release: -1; Yeast UUG start: -7; DENV2 CPE: 1; E-selectin induc: 1

What do the screens show for `COc1ccccc1-c1ccc([C@H]2[C@H](C#N)N(C(=O)C3CC3)[C@H]2CO)cc1`?
Cneo AK release: 81*; Yeast UUG start: 39; DENV2 CPE: -3; E-selectin induc: 0

What do the screens show for `COc1ccc(-c2ccc([C@H]3[C@@H](C#N)N(C(=O)NC(C)C)[C@@H]3CO)cc2)cc1`?
Cneo AK release: -3; Yeast UUG start: -5; DENV2 CPE: -8; E-selectin induc: 0

Results for COc1cccc(C#Cc2ccc([C@@H]3[C@@H](C#N)N(C(=O)C4CC4)[C@H]3CO)cc2)c1 ?
Cneo AK release: -3; Yeast UUG start: -4; DENV2 CPE: 26*; E-selectin induc: -1

What do the screens show for `CC(C)NC(=O)N1[C@H](CO)[C@H](c2ccc(-c3ccc(F)cc3)cc2)[C@@H]1C#N`?
Cneo AK release: -3; DENV2 CPE: 35*; E-selectin induc: 0

What do the screens show for `COc1ccc(-c2ccc([C@H]3[C@@H](C#N)N(C(=O)C4CC4)[C@@H]3CO)cc2)cc1`?
Cneo AK release: 1; Yeast UUG start: -10; DENV2 CPE: 56*; E-selectin induc: 0

How did COc1ccc(-c2ccc([C@@H]3[C@@H](CO)N(C(=O)NC4CCCC4)[C@H]3C#N)cc2)cc1 do in these assays?
Cneo AK release: 1; Yeast UUG start: -12; DENV2 CPE: 22*; E-selectin induc: 0

Results for COc1ccccc1-c1ccccc1[C@@H]1[C@@H](CO)N(C(=O)C2CCC2)[C@H]1C#N ?
DENV2 CPE: -11; E-selectin induc: 0

Compound activity: PubChem, Broad Institute
